This is an account of results in PubChem BioAssay AID528 (NMMLSC, 2006).

Protein sequences, listed by entry. Tags and fused reporters are not part of them.
UniProt P13612, whole entry, looked up: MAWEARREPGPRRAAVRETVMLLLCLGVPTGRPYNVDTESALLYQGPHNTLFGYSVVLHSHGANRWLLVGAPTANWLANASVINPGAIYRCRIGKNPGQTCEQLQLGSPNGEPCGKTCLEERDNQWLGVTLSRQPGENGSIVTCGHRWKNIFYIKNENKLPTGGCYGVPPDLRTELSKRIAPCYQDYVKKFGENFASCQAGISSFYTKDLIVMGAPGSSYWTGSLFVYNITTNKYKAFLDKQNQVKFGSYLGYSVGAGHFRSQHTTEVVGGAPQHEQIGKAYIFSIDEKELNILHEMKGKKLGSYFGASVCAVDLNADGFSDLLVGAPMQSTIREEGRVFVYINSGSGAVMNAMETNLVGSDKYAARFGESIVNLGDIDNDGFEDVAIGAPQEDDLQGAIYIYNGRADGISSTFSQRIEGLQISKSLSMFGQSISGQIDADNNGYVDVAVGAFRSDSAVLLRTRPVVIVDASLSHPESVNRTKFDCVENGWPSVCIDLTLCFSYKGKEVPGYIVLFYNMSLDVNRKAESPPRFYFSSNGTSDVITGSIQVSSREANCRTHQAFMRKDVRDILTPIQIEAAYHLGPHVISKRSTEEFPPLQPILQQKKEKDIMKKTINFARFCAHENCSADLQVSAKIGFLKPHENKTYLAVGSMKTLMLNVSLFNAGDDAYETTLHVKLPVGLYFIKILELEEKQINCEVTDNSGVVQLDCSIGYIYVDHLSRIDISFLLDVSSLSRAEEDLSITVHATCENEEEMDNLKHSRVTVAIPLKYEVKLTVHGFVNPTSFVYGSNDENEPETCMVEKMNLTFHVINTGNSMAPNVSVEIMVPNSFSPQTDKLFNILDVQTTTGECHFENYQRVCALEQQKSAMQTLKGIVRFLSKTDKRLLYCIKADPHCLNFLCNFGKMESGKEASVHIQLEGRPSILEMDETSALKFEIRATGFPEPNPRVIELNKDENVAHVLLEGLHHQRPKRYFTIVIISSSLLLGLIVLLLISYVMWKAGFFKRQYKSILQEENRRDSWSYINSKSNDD

The structures appear in SMILES notation. The list shows a part of the results, in another mix than the full data. Some of these compounds have results that are not shown, active ones among them. Records with an inconclusive call do not appear. Activity calls are given as the source filed them.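 Rule for the calls: active = fluorescent ligand binding to cells raised by more than 40% of the manganese-induced maximum; inconclusive = compound's own fluorescence above 85% of the ligand control signal; inactive = the rest.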

For this assay, the target named is Integrin alpha-4 (Homo sapiens) (UniProt P13612). The assay can be described thus: increased LDV-FITC ligand binding on VLA-4 – Jurkat cells, flow cytometry, primary screen (AID 528).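 Note: 0% = ligand binding without compound and 100% = manganese-stimulated maximal binding.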 To be noted: active compounds read high, screened at 10 µM (by protocol). Background: A flow cytometer gives signals particle by particle.
As for `O=C(OC1CN2CCC1CC2)C(CO)(c1ccccc1)c1ccccc1` (stereo unspecified), the activation is inactive: 4%.
